The target in the assay is Bifunctional epoxide hydrolase 2 (Homo sapiens, UniProt P34913). The assay is described as follows: Inhibition of sEH (unknown origin) using PHOME as substrate after 40 mins by fluorescence photometric method.

Protein sequences, listed by entry. Tags and fused reporters are not part of them.
UniProt P34913, whole entry: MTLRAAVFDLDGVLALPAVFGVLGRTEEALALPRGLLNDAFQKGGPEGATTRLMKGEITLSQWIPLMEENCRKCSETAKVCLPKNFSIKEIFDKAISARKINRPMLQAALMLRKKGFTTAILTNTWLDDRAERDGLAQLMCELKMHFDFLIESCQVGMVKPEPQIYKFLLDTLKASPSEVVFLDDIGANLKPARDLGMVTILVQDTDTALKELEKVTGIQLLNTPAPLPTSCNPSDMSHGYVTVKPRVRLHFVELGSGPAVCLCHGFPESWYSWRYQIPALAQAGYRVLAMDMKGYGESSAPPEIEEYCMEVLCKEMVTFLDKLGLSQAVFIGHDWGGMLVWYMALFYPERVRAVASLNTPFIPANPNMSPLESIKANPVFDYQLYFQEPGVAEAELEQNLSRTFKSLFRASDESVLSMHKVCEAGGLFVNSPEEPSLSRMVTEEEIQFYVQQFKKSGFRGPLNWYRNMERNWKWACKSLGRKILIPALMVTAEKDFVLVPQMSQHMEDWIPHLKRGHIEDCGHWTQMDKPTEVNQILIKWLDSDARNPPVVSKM

As for `CCCCOC(=O)CCCCCCCCCCCNC(=O)NC12CC3CC(CC(C3)C1)C2`, the midpoint of inhibition, the IC50, lay at 7.8 nM.

These data come from ChEMBL document CHEMBL4007474, “Soluble epoxide hydrolase inhibitors of indolinone alkaloids and phenolic derivatives from Cimicifuga dahurica (Turcz.) Maxim” (Bioorg Med Chem Lett, 2017).
